Values of other authors in US20230181464A1, “COMPOSITIONS FOR DELIVERY OF BIOACTIVE AGENTS INTO HAIR FOLLICLES” (FOLLICLE PHARMA LTD, priority 2020, published 2023).

Settings: cited from earlier work

For `CN(C/C=C/C#CC(C)(C)C)Cc1cccc2ccccc12`, the LogP is listed as “logP 5.53”.
